In patent publication US20250009702A1 (SICHUAN JIUZHANG BIOLOGICAL SCIENCE AND TECHNOLOGY CO., LTD., priority 2021, published 2025):

System: DLBCL in the brain (DLBCL Ly8 cell lines)
Assay: In vivo treatment of DLBCL in the brain (Ly8 transplanted tumor model)
Settings: group later given i.p. 3 mg/kg once every two days

For `CN(Cc1cnc2nc(N)nc(N)c2n1)c1ccc(C(=O)N[C@@H](CCC(=O)O)C(=O)O)cc1` [methotrexate], the “Weight (g) Before treatment” value was 18.93 ± 0.87 g.
